Like-named read-outs stand apart in the source and are kept apart here.

Chains of the proteins cited; added tags and fusions are not shown. Lines headed by an entry give the natural chain unless they say otherwise; changes in a name come on top.
UniProt P30550: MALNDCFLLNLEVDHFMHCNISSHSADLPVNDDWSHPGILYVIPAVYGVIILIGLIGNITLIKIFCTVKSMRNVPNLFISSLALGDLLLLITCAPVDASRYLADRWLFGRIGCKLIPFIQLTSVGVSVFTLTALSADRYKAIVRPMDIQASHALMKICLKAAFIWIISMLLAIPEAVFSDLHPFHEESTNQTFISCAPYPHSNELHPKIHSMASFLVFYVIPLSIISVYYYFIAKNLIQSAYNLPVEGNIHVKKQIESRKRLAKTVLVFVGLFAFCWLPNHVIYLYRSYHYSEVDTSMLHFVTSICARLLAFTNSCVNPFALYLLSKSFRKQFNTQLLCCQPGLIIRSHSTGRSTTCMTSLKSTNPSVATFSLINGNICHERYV
UniProt P28336: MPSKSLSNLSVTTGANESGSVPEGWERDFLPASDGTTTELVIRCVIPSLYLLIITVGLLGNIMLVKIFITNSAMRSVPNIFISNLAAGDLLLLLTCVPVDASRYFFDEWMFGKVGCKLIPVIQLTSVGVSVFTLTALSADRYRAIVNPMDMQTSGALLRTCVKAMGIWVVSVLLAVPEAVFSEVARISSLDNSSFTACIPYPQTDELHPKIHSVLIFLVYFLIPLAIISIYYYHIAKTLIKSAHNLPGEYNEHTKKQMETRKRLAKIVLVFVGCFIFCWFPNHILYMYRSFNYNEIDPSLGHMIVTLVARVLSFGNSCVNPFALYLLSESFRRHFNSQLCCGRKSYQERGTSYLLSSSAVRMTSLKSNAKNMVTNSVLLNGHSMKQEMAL
UniProt P32247: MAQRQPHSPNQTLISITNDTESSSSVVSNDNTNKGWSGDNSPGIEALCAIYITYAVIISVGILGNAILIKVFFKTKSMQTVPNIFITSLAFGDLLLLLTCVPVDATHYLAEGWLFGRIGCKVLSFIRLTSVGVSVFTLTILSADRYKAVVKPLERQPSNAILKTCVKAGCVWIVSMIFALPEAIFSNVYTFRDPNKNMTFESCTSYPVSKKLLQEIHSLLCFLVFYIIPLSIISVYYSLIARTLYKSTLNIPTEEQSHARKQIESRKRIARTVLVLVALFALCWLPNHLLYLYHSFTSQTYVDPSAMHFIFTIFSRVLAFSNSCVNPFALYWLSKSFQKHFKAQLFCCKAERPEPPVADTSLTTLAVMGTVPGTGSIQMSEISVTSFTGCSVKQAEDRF

As a reminder, the IC50 is the midpoint of a concentration-inhibition curve.

The target in data set [1] is T1, GRP-R (Homo sapiens, UniProt P30550). Kind of data set: Competition assay with 125I-BBN for GRP-R in PC3 cells (IC50). The class given is binding. More on the design: host or cells: PC3 / PC-3 human prostate cancer cells (intact, plated).
In data set [2] the test system is human PC-3 nude mouse model. The format is in vivo. To be noted: 1 hour.
Data set [3] relates to human PC-3 nude mouse model. The class given is in vivo. The conditions noted are these: 177Lu complex, i.v.
Data set [4] has as its system PC3 tumor-bearing nude mice. The class given is in vivo. To be noted: 177Lu-labeled, 200 μCi/kg i.v.
Data set [5] addresses T1, GRP-R. The conditions noted are these: read-out: IC50, GRP-R; human prostate carcinoma tissue; radiotracer 125I-[DTyr6, βAla11, Phe13, Nle14]-BBN(6-14); mean ± SEM.
The target in data set [6] is NMB-R (Homo sapiens, UniProt P28336). To be noted: read-out: IC50, NMB-R; human ileal carcinoid tissue; radiotracer 125I-[DTyr6, βAla11, Phe13, Nle14]-BBN(6-14); mean ± SEM.
The target of data set [7] is BB3 (Homo sapiens, UniProt P32247). The conditions noted are these: read-out: IC50, BB3; human bronchial carcinoid tissue; radiotracer 125I-[DTyr6, βAla11, Phe13, Nle14]-BBN(6-14); mean ± SEM.
[8] abbreviates: concentration of compound to inhibit 50% binding of iodinated bombesin to a GRP receptor on cells, read-out: IC50.

Turning to “N-[6-[[[[[4,7,10-Tris(carboxymethyl)-1,4,7,10-tetraazacyclododec-1-yl]acetyl]amino]acetyl]amino]naphthoyl]-L-glutaminyl-L-tryptophyl-L-alanyl-L-valyl-glycyl-L-histidyl-L-leucyl-L-methioninamide [Compound L234]”, in data set [1] (setting [8]), the half-inhibitory concentration (IC50) is 3 nM.
Turning to “N-[4-[[[[[4,7,10-Tris(carboxymethyl)-1,4,7,10-tetraazacyclododec-1-yl]acetyl]amino]acetyl]amino]benzoyl]-L-glutaminyl-L-tryptophyl-L-alanyl-L-valyl-glycyl-L-histidyl-L-leucyl-L-methioninamide [Compound L70]”, the “gastrointestinal radioactivity after L70 pre-treatment” value in data set [2] (L70 0.64 μg i.v. 5, 15 and 60 minutes prior to 177Lu-L70) is reported as “decreases”. For the same substance, the “radioactivity in the pancreas after L70 pre-treatment” value in data set [2] (L70 0.64 μg i.v. 5 or 15 minutes prior to 177Lu-L70) is on record as “significant decrease”. Also, the “Blood 24 h % ID” value in data set [3] (24 h) turned out to be 0.02 ± 0.00 % ID. In addition, the “Blood 7 d % ID” value in data set [3] (7 d) was determined as 0.00 ± 0.00 % ID. Besides, the “uptake in the mouse pancreas compared with control compound” value in data set [4] is given as “much higher”. In addition, the “uptake in the tumor compared with control DO3A-monoamide-Aoc-QWAVGHLM-NH2” value in data set [4] (1 and 24 h) is “much higher”. Further, in data set [4] (1 hr), the “Blood (% ID)” value came out at 0.33 % ID, the Kidneys is recorded as 6.01 % ID/g, the “Liver (% ID)” value is recorded as 0.77 % ID and the Pancreas amounted to 42.34 % ID/g. This substance also displayed a Tumor in data set [4] (1 hr) of 6.42 % ID/g. Besides, in data set [4] (24 hr), the “Blood (% ID)” value turned out to be 0.03 % ID, the Kidneys came out at 2.31 % ID/g, the “Liver (% ID)” value is given as 0.10 % ID and the Pancreas is reported as 40.24 % ID/g. In addition, the Tumor in data set [4] (24 hr) is recorded as 3.50 % ID/g.
“DO3A-monoamide-8-amino-octanoic acid-BBN (7-14) [reference compound]”: in data set [4] (1 hr), the “Blood (% ID)” value was 0.44 % ID, the Kidneys was found to be 7.65 % ID/g, the “Liver (% ID)” value is 0.38 % ID and the Pancreas was 28.60 % ID/g. In data set [4] (1 hr), the Tumor amounted to 3.66 % ID/g. For the same substance, in data set [4] (24 hr), the “Blood (% ID)” value was 0.03 % ID, the Kidneys worked out at 1.03 % ID/g, the “Liver (% ID)” value is 0.04 % ID and the Pancreas stood at 1.01 % ID/g. In data set [4] (24 hr), this substance registered a Tumor of 1.52 % ID/g.
In the case of “N-[(3β,5β,12α)-3-[[[4,7,10-Tris(carboxymethyl)-1,4,7,10-tetraazacyclododec-1-yl]acetyl]amino]-glycyl-4-aminobenzoyl-D-tyrosinyl-L-glutaminyl-L-tryptophyl-L-alanyl-L-valyl-betaalanyl-L-histidyl-L-phenylalanyl-L-norleucinamide [Compound L222]”, in data set [1] (title of Table 19, PC3/GRP-R, read-out: level at which the universal agonists compete (IC50)), the IC50 was around 50 nM.
“[DTyr^6, βAla^11, Phe^13, Nle^14]-BBN(6-14) [Universal ligand]”: the IC50 in data set [5] is 0.7 ± 0.1 nM; in data set [6], 0.8 ± 0.1 nM; in data set [7], 1.1 ± 0.1 nM.
As for “N-[(3β,5β,12α)-3-[[[4,7,10-Tris(carboxymethyl)-1,4,7,10-tetraazacyclododec-1-yl]acetyl]amino]-4-aminobenzoyl-glycyl-L-glutaminyl-L-tryptophyl-L-alanyl-L-valyl-glycyl-L-histidyl-L-leucyl-L-methioninamide [Compound L204]”, in data set [1] (setting [8]), the 50% inhibitory concentration (IC50) was 50 nM.
